From patent publication US10758623B2, “Pharmaceutically active agent complexes, polymer complexes, and compositions and methods involving the same” (Durect Corporation, priority 2013, dated 2020)

Experiment: Stability following exposure to gamma radiation, RPLC purity (Example 30)
Type: physicochemical
Conditions: relative to the complexed APIs, with a corresponding reduction in potency
Excerpt: The APIs were mixed with the complexable polymers at a ratio of 1:1, 1:4 or 1:10. The instantaneous precipitation was separated from reaction media (ammonium bicarbonate in water) and dried via lyophilization. The dried powder or the dried powder suspended in Benzyl Benzoate were loaded either in glass vial or plastic syringes (Intervene) and packed in aluminum pouches. These samples were exposed to gamma radiation (12.5 kGy-17.5 kGy) for more than 8 hrs at room temperature with radiation indicator sticker (Sterigenics, Corona, Calif.). These gamma irradiated samples were then analyzed for purity using reverse phase liquid chromatography (RPLC) in reference to non-gamma irradiated samples.

Q: With Insulin as the substance, how does the “stability after 15 kGy gamma irradiation, non-complexed API” value read?
A: degraded faster
